Test results: article PMC5404560, “Towards Selective Mycobacterial ClpP1P2 Inhibitors with Reduced Activity against the Human Proteasome” (Antimicrobial Agents and Chemotherapy, 2017)

Tests used:
[1] = biological target: T1, Caspase 3 (Homo sapiens, UniProt P42574); test: Protease panel: Caspase 3; format: biochemical; details: supplement panel table, test and control compound
T1 construct: Reaction Biology Corporation (contract testing)
T1 sequence (P42574 29-277): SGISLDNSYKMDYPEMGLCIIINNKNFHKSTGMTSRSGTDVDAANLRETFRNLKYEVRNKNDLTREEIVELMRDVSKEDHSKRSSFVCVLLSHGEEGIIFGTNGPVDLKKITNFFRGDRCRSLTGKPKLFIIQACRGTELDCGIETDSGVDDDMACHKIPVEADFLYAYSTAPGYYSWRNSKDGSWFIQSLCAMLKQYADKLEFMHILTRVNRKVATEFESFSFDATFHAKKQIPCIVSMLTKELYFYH

[2] = biological target: T2, Caspase 6 (Homo sapiens, UniProt P55212); test: Protease panel: Caspase 6; format: biochemical; details: supplement panel table, test and control compound
T2 construct: Reaction Biology Corporation (contract testing)
T2 sequence (P55212 24-293): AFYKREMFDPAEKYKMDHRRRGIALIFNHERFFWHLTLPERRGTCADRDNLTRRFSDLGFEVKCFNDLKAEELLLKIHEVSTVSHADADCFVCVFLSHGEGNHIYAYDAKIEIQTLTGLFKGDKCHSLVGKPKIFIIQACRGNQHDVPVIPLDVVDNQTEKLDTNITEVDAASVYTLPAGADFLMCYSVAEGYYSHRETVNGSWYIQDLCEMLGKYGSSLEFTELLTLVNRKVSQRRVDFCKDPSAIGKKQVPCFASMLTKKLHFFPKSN

Work on `CC(=O)N[C@@H](CC(=O)O)C(=O)N[C@@H](CCC(=O)O)C(=O)N[C@H](C(=O)N[C@H](C=O)CC(=O)O)C(C)C` [DEVD-CHO] yielded an IC50 [1] of 0.000913 µM and an IC50 [2] of 0.00904 µM.
